Experimental findings from ChEMBL document CHEMBL4007405 (J Med Chem, 2017) are described below.

Sequences of proteins named here, by UniProt entry; tags and fusion partners are left off. Residues count along the entry.
UniProt P78536, 215-824 limits assumed: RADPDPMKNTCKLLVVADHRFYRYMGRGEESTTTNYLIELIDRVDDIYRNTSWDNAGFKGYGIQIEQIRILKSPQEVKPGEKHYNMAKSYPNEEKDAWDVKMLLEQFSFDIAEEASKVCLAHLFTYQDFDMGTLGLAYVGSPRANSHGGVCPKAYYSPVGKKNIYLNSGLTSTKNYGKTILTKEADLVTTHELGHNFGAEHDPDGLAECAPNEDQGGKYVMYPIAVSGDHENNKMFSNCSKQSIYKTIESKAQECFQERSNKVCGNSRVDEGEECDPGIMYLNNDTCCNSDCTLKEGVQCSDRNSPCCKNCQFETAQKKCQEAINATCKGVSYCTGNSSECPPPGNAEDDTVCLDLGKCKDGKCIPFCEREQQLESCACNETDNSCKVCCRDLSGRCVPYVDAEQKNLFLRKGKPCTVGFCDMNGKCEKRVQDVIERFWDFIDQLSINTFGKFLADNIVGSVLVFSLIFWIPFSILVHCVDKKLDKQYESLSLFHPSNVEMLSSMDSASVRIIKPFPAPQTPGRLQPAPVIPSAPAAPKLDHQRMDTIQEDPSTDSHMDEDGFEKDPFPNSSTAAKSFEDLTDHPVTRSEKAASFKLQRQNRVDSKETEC

SMILES strings stand for the structures. Some results are limits rather than exact numbers.

One may read the IC50 as the concentration at which inhibition is half-maximal. One may read the Ki as a measure of affinity in units of concentration, obtained from inhibition or displacement. Low values mean a stronger hold on the target, high ones a looser hold on the target.

Assay [1] concerns the target T1, Disintegrin and metalloproteinase domain-containing protein 17 (Homo sapiens, UniProt P78536).
Assay [2] addresses T1, Disintegrin and metalloproteinase domain-containing protein 17. The source holds these as a separate data set.

`CC[C@H](C)[C@@H]1NC(=O)[C@@H]2CSSC[C@H](NC(=O)[C@H](CCCNC(=N)N)NC(=O)[C@@H]3CSSC[C@H](NC1=O)C(=O)N[C@@H]([C@@H](C)O)C(=O)N[C@@H](CCCNC(=N)N)C(=O)NCC(=O)N[C@@H](Cc1ccccc1)C(=O)N3)C(=O)N[C@@H](CC(C)C)C(=O)N[C@H]1CSSC[C@H](NC(=O)[C@H](Cc3c[nH]c4ccccc34)NC(=O)[C@H](CCCNC(=N)N)NC(=O)[C@H](CCCNC(=N)N)NC(=O)[C@H](CCCNC(=N)N)NC1=O)C(=O)N[C@@H](CCCNC(=N)N)C(=O)N2` came in with an IC50 in assay [1] of 672 nM. The same measure, in the same setting: as for `CC[C@H](C)[C@@H]1NC(=O)[C@@H]2CSSC[C@H](NC(=O)[C@H](CCCNC(=N)N)NC(=O)[C@@H]3CSSC[C@H](NC1=O)C(=O)N[C@@H]([C@@H](C)O)C(=O)N[C@@H](CCCNC(=N)N)C(=O)NCC(=O)N[C@@H](Cc1ccccc1)C(=O)N3)C(=O)N[C@@H](Cc1c[nH]c3ccccc13)C(=O)N[C@H]1CSSC[C@H](NC(=O)[C@H](Cc3c[nH]c4ccccc34)NC(=O)[C@H](CCCNC(=N)N)NC(=O)[C@H](CCCNC(=N)N)NC(=O)[C@H](CCCNC(=N)N)NC1=O)C(=O)N[C@@H](CCCNC(=N)N)C(=O)N2`, the figure is 750 nM. Molecule `N=C(N)NCCC[C@@H]1NC(=O)[C@H](CCCNC(=N)N)NC(=O)[C@@H]2CSSC[C@H](NC(=O)[C@H](Cc3c[nH]c4ccccc34)NC(=O)[C@H](CCCNC(=N)N)NC1=O)C(=O)N[C@@H](CCCNC(=N)N)C(=O)N[C@H]1CSSC[C@H](NC(=O)[C@H](CCCNC(=N)N)NC(=O)[C@@H]3CSSC[C@H](NC(=O)[C@H](Cc4c[nH]c5ccccc45)NC1=O)C(=O)N[C@@H](CCCNC(=N)N)C(=O)N[C@@H](CCCNC(=N)N)C(=O)N[C@@H](CCCNC(=N)N)C(=O)N[C@@H](Cc1c[nH]c4ccccc14)C(=O)N3)C(=O)N[C@@H](Cc1c[nH]c3ccccc13)C(=O)N2` had a Ki in assay [1] of 1200 nM. This lies in the single-digit micromolar range.

For the molecule `C[C@@H](O)[C@@H]1NC(=O)[C@@H]2CSSC[C@H](NC(=O)[C@H](Cc3ccccc3)NC(=O)CNC(=O)[C@H](CCCNC(=N)N)NC1=O)C(=O)N[C@@H](CCCNC(=N)N)C(=O)N[C@H]1CSSC[C@H](NC(=O)[C@H](CCCNC(=N)N)NC(=O)[C@@H]3CSSC[C@H](NC(=O)[C@H](Cc4c[nH]c5ccccc45)NC1=O)C(=O)N[C@@H](CCCNC(=N)N)C(=O)N[C@@H](CCCNC(=N)N)C(=O)N[C@@H](CCCNC(=N)N)C(=O)N[C@@H](Cc1c[nH]c4ccccc14)C(=O)N3)C(=O)N[C@@H](Cc1c[nH]c3ccccc13)C(=O)N2`, in assay [2], the IC50 was at least 10000 nM.

In assay [1], `CC[C@H](C)[C@@H]1NC(=O)[C@@H]2CSSC[C@H](NC(=O)[C@H](CCCNC(=N)N)NC(=O)[C@@H]3CSSC[C@H](NC1=O)C(=O)N[C@@H]([C@@H](C)O)C(=O)N[C@@H](CCCNC(=N)N)C(=O)NCC(=O)N[C@@H](Cc1ccccc1)C(=O)N3)C(=O)N[C@@H](CC(C)C)C(=O)N[C@H]1CSSC[C@H](NC(=O)[C@H](C(C)C)NC(=O)CNC(=O)[C@H](CCCNC(=N)N)NC(=O)[C@H](CCCNC(=N)N)NC1=O)C(=O)N[C@@H](CCCNC(=N)N)C(=O)N2` registered an IC50 of 4450 nM.
